Measured values taken from US20220326229A1, “ASSAY FOR REAL-TIME SIMULTANEOUS RECRUITMENT OF ARRESTIN ISOFORMS TO G PROTEIN-COUPLED RECEPTORS” (Purdue Research Foundation, priority 2021, published 2022).

The chains behind the UniProt entries cited, without tags or fusion partners. Where a name states a change or a piece, a line headed by the entry shows the natural chain unless it says otherwise. A line that says so, or that is headed by a name, gives the form on record, which may keep a tag or linker.
UniProt P32300, with tags, fused parts or gaps: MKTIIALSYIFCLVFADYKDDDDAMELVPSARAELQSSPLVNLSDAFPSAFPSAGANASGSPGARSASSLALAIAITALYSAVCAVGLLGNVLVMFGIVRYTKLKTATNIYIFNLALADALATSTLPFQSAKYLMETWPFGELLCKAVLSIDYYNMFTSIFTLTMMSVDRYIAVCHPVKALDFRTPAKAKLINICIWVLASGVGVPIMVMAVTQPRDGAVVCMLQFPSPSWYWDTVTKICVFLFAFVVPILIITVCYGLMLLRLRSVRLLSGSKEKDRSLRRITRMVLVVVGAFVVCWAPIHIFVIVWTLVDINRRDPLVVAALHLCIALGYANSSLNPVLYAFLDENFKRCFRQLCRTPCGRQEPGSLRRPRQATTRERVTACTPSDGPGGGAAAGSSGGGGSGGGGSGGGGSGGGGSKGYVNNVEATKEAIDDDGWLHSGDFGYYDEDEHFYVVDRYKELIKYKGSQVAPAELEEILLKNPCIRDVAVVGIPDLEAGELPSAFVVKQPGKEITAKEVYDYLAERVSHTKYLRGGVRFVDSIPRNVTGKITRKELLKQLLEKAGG

Target: T1, δ opioid receptor (DOR) (Mus musculus, UniProt P32300)
T1 construct: influenza signal peptide (N); linker […]; expressed in transfected cells; host or cells: HEK293
Assay: ClickArr assay: simultaneous recruitment of Barr1 (508 nm) and Barr2 (620 nm) to DOR in triply transfected HEK293 cells
Assay type: cell-based

With YGGFL [leu-enkephalin] the “Kinetics of Barr1 vs Barr2 recruitment (normalized β-arrestin signal over time)” value was “Recruitment of Barr1 is much slower than Barr2”.
